Results on 4 compounds are retold here after EP4831199A1, “IMMUNE-STIMULATING ANTIBODY CONJUGATE, PREPARATION METHOD THEREFOR, AND USE THEREOF” (dated 2026).

Amino acid sequences for entries named in this document (tags omitted).
UniProt Q86WV6, whole entry: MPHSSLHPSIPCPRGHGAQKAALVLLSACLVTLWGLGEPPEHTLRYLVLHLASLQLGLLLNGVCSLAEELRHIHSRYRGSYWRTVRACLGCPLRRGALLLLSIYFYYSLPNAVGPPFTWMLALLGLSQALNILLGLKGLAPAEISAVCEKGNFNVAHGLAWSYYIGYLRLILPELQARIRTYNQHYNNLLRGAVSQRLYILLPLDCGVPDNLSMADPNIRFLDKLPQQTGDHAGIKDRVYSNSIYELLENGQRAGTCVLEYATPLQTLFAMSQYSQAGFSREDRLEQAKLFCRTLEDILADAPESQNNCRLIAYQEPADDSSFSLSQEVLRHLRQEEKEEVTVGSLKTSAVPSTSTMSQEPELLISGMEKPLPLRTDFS
UniProt Q3TBT3, whole entry: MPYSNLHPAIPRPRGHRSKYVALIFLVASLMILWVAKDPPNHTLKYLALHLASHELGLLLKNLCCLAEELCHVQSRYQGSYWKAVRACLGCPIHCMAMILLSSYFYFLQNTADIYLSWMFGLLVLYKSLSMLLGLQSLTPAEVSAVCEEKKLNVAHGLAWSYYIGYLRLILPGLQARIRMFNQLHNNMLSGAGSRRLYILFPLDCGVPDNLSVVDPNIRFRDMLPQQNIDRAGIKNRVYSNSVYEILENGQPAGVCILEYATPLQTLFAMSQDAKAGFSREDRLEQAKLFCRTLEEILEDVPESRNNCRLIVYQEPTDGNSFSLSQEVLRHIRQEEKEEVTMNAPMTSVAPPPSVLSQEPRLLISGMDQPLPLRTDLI

The structures appear in SMILES notation.

For orientation: EC50 means the concentration that produces a half-maximal response. A higher EC50 goes with a need for much substance.

The target in assay [1] is STING-mediated interferon (IFN) signaling pathway (Homo sapiens, UniProt Q86WV6). In words: Agonistic effect on STING-mediated IFN signal SEAP reporter gene in THP1-Blue ISG cells. Conditions: for EC50: 16 h incubation, SEAP reporter, QUANTI-Blue; for Emax (OD620nm): OD620 nm value at the maximum activation effect. The procedure:
In this experiment, the activity of the secreted embryonic alkaline phosphatase (SEAP) reporter gene, which is regulated by interferon (IFN) regulatory factors, in THP1-Blue™ ISG cells (InvivoGen) was measured to assess the agonistic effects of the test compounds on the STING-mediated IFN signaling pathway at the cellular level.
THP1-Blue™ ISG cells (InvivoGen) in the logarithmic growth phase were centrifuged and resuspended in a cell culture medium to a density of 2 × 10^6 cells/mL, and the cell suspension was seeded into a 96-well cell culture plate (Corning) at 50 µL/well. Stock solutions of the compounds were serially diluted with the cell culture medium to obtain 2× working concentration dilutions with concentrations of 60 µM, 7.5 µM,0.94 µM, 0.12 µM, 0.015 µM, 0.0018 µM, 0.00023 µM, 0.00003 µM, and 0 µM. The 2× working concentration dilutions of the compounds were added to the 96-well plate at 50 µL/well (the final concentration of DMSO was 1%). The culture plate was incubated in a cell incubator for 16 h. After the cell incubation, the cell culture supernatants (10 µL) were transferred to a 96-well plate, and a QUANTI-Blue (InvivoGen) solution was added at 90 µL/well. The plate was incubated at 37 °C for 3 h, and the absorbance at 620 nm (OD620 nm) was measured using a microplate reader (BMG LABTECH).
EC50 was calculated by log(agonist) vs. response -- Variable slope fitting in Graphpad Prism software. Emax was the OD620 nm value where the maximum activation effect of the present test drug was achieved.
(Reporter assays use an easily measured gene product as a stand-in for the process of interest.)

The target in assay [2] is cytokine mIFN-β of the STING pathway in murine Raw264.7 cells (Mus musculus, UniProt Q3TBT3). In words: Expression of cytokine mIFN-β of the STING pathway in Raw264.7 cells (ELISA). Conditions: amount of secreted mIFN-β at the maximum activation effect. Here is the method: In this experiment, the expression of the cytokine mIFN-β of the STING signaling pathway in Raw264.7 cells (Nanjing Cobioer) was measured by ELISA to assess the agonistic effects of the test compounds on the expression of the cytokine mIFN-β of the STING pathway at the cellular level.
Raw264.7 cells (Nanjing Cobioer) in the logarithmic growth phase were centrifuged and resuspended in a cell culture medium to a density of 8 × 10^6 cells/mL, and the cell suspension was seeded into 24-well cell culture plates (Corning) at 250 µL/well. The test compounds were diluted with the cell culture medium to obtain 2× working concentration dilutions with concentrations of 200 µM, 66.67 µM, 22.22 µM, 7.41 µM, 2.47 µM, 0.82 µM, 0.27 µM, 0.09 µM, and 0 µM. The dilutions of the test compounds (250 µL) were added to the 24-well plates (the final concentration of DMSO was 1%). After the dilutions were well mixed with cells, the plates were incubated in a cell incubator for 6 h. After the cell incubation, the plates were centrifuged at 300 g for 5 min, and the supernatants were collected. 100 µL of the cell culture solution was collected using a pipette and incubated with a primary antibody and an HRP-labeled secondary antibody according to the procedures of a mouse IFN-β ELISA kit (PBL-42400-2), and color development was performed. The absorbance at a wavelength of 450 nm (OD450 nm) was measured.
EC50 was calculated by log(agonist) vs. response -- Variable slope fitting in Graphpad Prism software. Emax was the amount of secreted mIFN-β where the maximum activation effect of the present test drug was achieved.
In general terms: ELISA stands for enzyme-linked immunosorbent assay.

For `COc1cc2sc(C(=O)N(C)CCC(=O)O)cc2cc1OCCCCOc1cc2cc(C(=O)CCC(=O)O)sc2cc1O`, in assay [1], the concentration giving a half-maximal response (EC50) came to 626 nM and the “Emax (OD620nm)” value is given as 1.22 OD620nm.
Consider `COc1cc2sc(C(=O)N(C)CCC(=O)O)cc2cc1OCCCOc1cc2sc(C(=O)CCC(=O)O)cc2cc1O`, for which, in assay [2], the Emax was 1523 pg/mL. Also, in assay [1], the EC50 was determined as 348 nM and the “Emax (OD620nm)” value worked out at 1.51 OD620nm.
On the same counts, the results for `COc1cc2sc(C(=O)N(C)CCC(=O)O)cc2cc1OCCCOc1cc2cc(C(=O)CCC(=O)O)sc2cc1O` are 2230 pg/mL, 68 nM and 1.67 OD620nm.
In assay [2], `COc1cc2cc(C(=O)N(C)CCC(=O)O)sc2cc1OCCCOc1cc2cc(C(=O)CCC(=O)O)sc2cc1O` gave an Emax of 1706 pg/mL. Also, in assay [1], the 50% effective concentration (EC50) worked out at 79 nM and the “Emax (OD620nm)” value was found to be 1.25 OD620nm.
